{"source": "paper PMC10893053", "about": "“Mechanistic Insight in Permeability through Different Membranes in the Presence of Pharmaceutical Excipients: A Case of Model Hydrophobic Carbamazepine” (Pharmaceutics, 2024)", "key": {"[1]": {"assay": "In vitro permeability, Franz diffusion cell, regenerated cellulose membrane", "assay_type": "in vitro ADME", "conditions": "RC membrane, 37 °C", "procedure": "(§1) The apparent permeability coefficients were measured at 37 °C with the help of a vertical-type Franz diffusion cell (PermeGear, Inc., Hellertown, PA, USA). The experimental setup was the same as it was described in our previous study, where the excess amount of the investigated substance was placed in glass cups with ground-in lids. The required volume of buffer pH 6.8 without and with a predetermined concentration of the excipient (F127 or SBE-β-CD in the present study) was added, and the suspension was mixed overnight and filtered to obtain a clear solution. The concentration of this solution was determined and used for the further calculation of the permeability coefficient. […] The membrane was mounted between the donor and receptor chambers of the Franz cell. The effective surface area of the membrane was 0.785 cm^2. Each experiment lasted 5 h. The donor solution was permanently mixing with a magnetic stirrer at a constant rate. The aliquots of the receptor solution (0.5 mL) were withdrawn every 30 min and promptly replaced with the same volume of the fresh buffer.\n(§2) The apparent permeability coefficients were taken as the average values of no less than three replicas. […]"}, "[2]": {"assay": "Cyclodextrin (SBE-β-CD)/buffer apparent partition coefficient of CBZ", "assay_type": "physicochemical", "conditions": "37 °C", "procedure": "(§3) Additionally, for the sake of the reliable comparison of the partition within the micellar and cyclodextrin systems, the concentrations of the excipient (F127 or SBE-β-CD) on the X-axis were expressed in kg∙L^−1. From the results of the partition coefficients determinations, the thermodynamics of solubilization by F127 and SBE-β-CD was disclosed by the excess free Gibbs energy ( ΔGS37°C ) evaluation, using the equation:(12) ΔGS37°C=−RT·lnKexcipient/buf\n(§4) In the case of cyclodextrins, the nonspecific interaction between the solute and the cavity of cyclodextrin takes place, and the solubilization process may be attributed to the partition of solutes from the aqueous buffer into the cyclodextrin cavity. In this work, the partition from the micellar pseudo phase (F127) to the aqueous buffer pH 6.8, as well as from SBE-β-CD to the buffer was studied using the plots of the linear dependences (Figure S4), plotted according to Equations (10) and (11). The calculations were conducted in two variants."}, "[3]": {"parameters": "method as in PMID 21415539", "conditions": "water to 1-octanol; pH 7.4 of the aqueous phase; cited from earlier work"}, "[4]": {"assay": "Free CBZ fraction estimation", "assay_type": "physicochemical", "conditions": "F127 1.83 mmol·L-1"}, "[5]": {"assay": "Micelle (F127)/buffer apparent partition coefficient of CBZ", "assay_type": "physicochemical", "conditions": "37 °C", "procedure": "as §3, §4"}, "[6]": {"assay": "In vitro permeability, Franz diffusion cell, polydimethylsiloxane–polycarbonate membrane", "assay_type": "in vitro ADME", "conditions": "PDS membrane, 37 °C", "procedure": "as §1, §2"}}, "data": [{"smiles": "NC(=O)N1c2ccccc2C=Cc2ccccc21", "note": "[CBZ, carbamazepine]", "values": [{"measurement": "Pratio (ratio of Papp with the excipient to Papp with pure buffer solution)", "setting": "[1]; F127 1.33 mmol·L^−1", "result": 0.585}, {"measurement": "Pratio (ratio of Papp with the excipient to Papp with pure buffer solution)", "setting": "[1]; F127 1.83 mmol·L^−1", "result": 0.484}, {"measurement": "Pratio (ratio of Papp with the excipient to Papp with pure buffer solution)", "setting": "[1]; F127 2.30 mmol·L^−1", "result": 0.369}, {"measurement": "Pratio (ratio of Papp with the excipient to Papp with pure buffer solution)", "setting": "[1]; SBE-β-CD 6.89 mmol·L^−1", "result": 0.373}, {"measurement": "Pratio (ratio of Papp with the excipient to Papp with pure buffer solution)", "setting": "[1]; SBE-β-CD 13.78 mmol·L^−1", "result": 0.244}, {"measurement": "Pratio (ratio of Papp with the excipient to Papp with pure buffer solution)", "setting": "[1]; SBE-β-CD 20.67 mmol·L^−1", "result": 0.225}, {"measurement": "ΔGS37°C (buffer pH 6.8→SBE-β-CD), apparent free Gibbs energy of CBZ transfer", "setting": "[2]", "result": "−13.7", "unit": "kJ∙mol^−1"}, {"measurement": "logP", "setting": "[3]", "result": 2.58}, {"measurement": "Free fraction of CBZ (ffree)", "setting": "[4]", "result": 0.454}, {"measurement": "ΔGS37°C (buffer pH 6.8→F127), apparent free Gibbs energy of CBZ transfer", "setting": "[5]", "result": "−10.5", "unit": "kJ∙mol^−1"}, {"measurement": "Pratio (ratio of Papp with the excipient to Papp with pure buffer solution)", "setting": "[6]; F127 1.33 mmol·L^−1", "result": 0.504}, {"measurement": "Pratio (ratio of Papp with the excipient to Papp with pure buffer solution)", "setting": "[6]; F127 1.83 mmol·L^−1", "result": 0.446}, {"measurement": "Pratio (ratio of Papp with the excipient to Papp with pure buffer solution)", "setting": "[6]; F127 2.30 mmol·L^−1", "result": 0.377}, {"measurement": "Pratio (ratio of Papp with the excipient to Papp with pure buffer solution)", "setting": "[6]; SBE-β-CD 6.89 mmol·L^−1", "result": 0.224}, {"measurement": "Pratio (ratio of Papp with the excipient to Papp with pure buffer solution)", "setting": "[6]; SBE-β-CD 13.78 mmol·L^−1", "result": 0.140}, {"measurement": "Pratio (ratio of Papp with the excipient to Papp with pure buffer solution)", "setting": "[6]; SBE-β-CD 20.67 mmol·L^−1", "result": 0.100}]}]}
